From patent US7799791B2, “Tetrahydrofuro(3,2-B) pyrrol-3-one derivatives as inhibitors of cysteine proteinases” (Amura Therapeutics Limited, priority 2007, dated 2010)

Chains of the proteins cited; added tags and fusions are not shown. Residues count along the entry.
UniProt P43235, 115-329 limits assumed: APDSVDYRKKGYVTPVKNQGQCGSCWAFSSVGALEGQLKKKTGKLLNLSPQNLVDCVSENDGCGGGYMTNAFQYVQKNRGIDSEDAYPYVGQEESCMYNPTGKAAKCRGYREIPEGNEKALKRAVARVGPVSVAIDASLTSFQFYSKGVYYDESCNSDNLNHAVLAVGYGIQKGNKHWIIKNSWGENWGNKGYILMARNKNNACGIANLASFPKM

What follows are molecules tested against Human recombinant cathepsin K (Homo sapiens, UniProt P43235) (assay: In vitro cathepsin Ki inhibition measurements). Conditions: read-out: Ki (nM) vs Human Cathepsin K, prior art WO-A-02057270 examples, Table 2.
Type: biochemical

| Structure (SMILES) | Ki [nM] |
| --- | --- |
| O=C(N[C@@H](Cc1ccc(O)cc1)C(=O)N1CC[C@H]2OCC(=O)[C@H]21)c1ccoc1 | > 20000 |
| COc1ccc(C(=O)N[C@@H](CC(C)C)C(=O)N2CC[C@H]3OCC(=O)[C@H]32)cc1 | > 150 |
| CC(C)C[C@H](NC(=O)Cc1ccccc1)C(=O)N1CC[C@H]2OCC(=O)[C@H]21 | > 1500 |
| O=C(Cc1ccccc1)N[C@@H](CC1CCCCC1)C(=O)N1CC[C@H]2OCC(=O)[C@H]21 | > 40000 |
| O=C(N[C@@H](CSCc1ccccc1)C(=O)N1CC[C@H]2OCC(=O)[C@H]21)c1cc2ccccc2s1 | > 2500 |
| O=C(N[C@@H](CSCc1ccccc1)C(=O)N1CC[C@H]2OCC(=O)[C@H]21)c1cccc2ccccc12 | > 20000 |
| O=C(Cc1ccccc1)N[C@@H](CSCc1ccccc1)C(=O)N1CC[C@H]2OCC(=O)[C@H]21 | > 25000 |
| O=C1CO[C@@H]2CCN(C(=O)[C@H](CC3CCCCC3)OC(=O)N3CCOCC3)[C@H]12 | > 40000 |
| CC(C)(C)c1ccc(C(=O)N[C@@H](Cc2ccc(Br)cc2)C(=O)N2CC[C@H]3OCC(=O)[C@H]32)cc1 | > 50000 |
| O=C1CO[C@@H]2CCN(C(=O)[C@H](CC3CCCCC3)NC(=O)N3CCOCC3)[C@H]12 | > 16000 |
| O=C(CCc1ccccc1)N[C@@H](Cc1ccccc1)C(=O)N1CC[C@H]2OCC(=O)[C@H]21 | > 10000 |
| O=C(N[C@@H](CC1CCCCC1)C(=O)N1CC[C@H]2OCC(=O)[C@H]21)c1cc2ccccc2s1 | > 2000 |
| O=C1CO[C@@H]2CCN(C(=O)[C@H](Cc3ccc(O)cc3)NC(=O)N3CCOCC3)[C@H]12 | > 100000 |
| Cc1ccc(C(=O)N[C@@H](CC(C)C)C(=O)N2CC[C@H]3OCC(=O)[C@H]32)cc1 | > 200 |
| O=C(N[C@@H](Cc1ccc(O)cc1)C(=O)N1CC[C@H]2OCC(=O)[C@H]21)c1ccc(-c2cccs2)cc1 | > 20000 |
| CC(C)C[C@H](NC(=O)CCc1ccccc1)C(=O)N1CC[C@H]2OCC(=O)[C@H]21 | > 2000 |
| CC(C)(C)C[C@H](NC(=O)c1ccsc1)C(=O)N1CC[C@H]2OCC(=O)[C@H]21 | > 250 |
| CC(C)C[C@H](NC(=O)c1cccc2ccccc12)C(=O)N1CC[C@H]2OCC(=O)[C@H]21 | > 2500 |
| O=C(Cc1ccccc1)N[C@@H](Cc1ccc(O)cc1)C(=O)N1CC[C@H]2OCC(=O)[C@H]21 | > 45000 |
| O=C(CCc1ccccc1)N[C@@H](Cc1ccc(O)cc1)C(=O)N1CC[C@H]2OCC(=O)[C@H]21 | > 23000 |

| Structure (SMILES) | Ki [nM] |
| --- | --- |
| O=C(N[C@@H](CSCc1ccccc1)C(=O)N1CC[C@H]2OCC(=O)[C@H]21)c1ccoc1 | > 6500 |
| O=C(N[C@@H](CC1CCCCC1)C(=O)N1CC[C@H]2OCC(=O)[C@H]21)c1ccsc1 | > 2000 |
| O=C1CO[C@@H]2CCN(C(=O)[C@H](CSCc3ccccc3)NC(=O)N3CCOCC3)[C@H]12 | > 32000 |
| O=C(N[C@@H](CSCc1ccccc1)C(=O)N1CC[C@H]2OCC(=O)[C@H]21)c1ccsc1 | > 2000 |
| O=C(N[C@@H](CC1CCCCC1)C(=O)N1CC[C@H]2OCC(=O)[C@H]21)c1cccc2ccccc12 | > 20000 |
| CC(C)CC(C(=O)N1CC[C@H]2OCC(=O)[C@H]21)c1cccc(-c2ccccc2)c1 (stereo partly drawn) | > 2000 |
| O=C(N[C@@H](Cc1ccc(O)cc1)C(=O)N1CC[C@H]2OCC(=O)[C@H]21)c1ccc(OC(F)(F)F)cc1 | > 15000 |
| COc1ccc(C[C@H](NC(=O)c2ccc(C(C)(C)C)cc2)C(=O)N2CC[C@H]3OCC(=O)[C@H]32)cc1 | > 50000 |
| O=C1CO[C@@H]2CCN(C(=O)C(CC3CCCCC3)OCc3ccccc3)[C@H]12 (stereo partly drawn) | > 67000 |
| O=C(N[C@@H](Cc1ccccc1)C(=O)N1CC[C@H]2OCC(=O)[C@H]21)c1cccc2ccccc12 | > 35000 |
| O=C1CO[C@@H]2CCN(C(=O)[C@@H](CC(=O)N3CCOCC3)CC3CCCCC3)[C@H]12 | > 100000 |
| O=C(Cc1ccccc1)N[C@@H](Cc1ccccc1)C(=O)N1CC[C@H]2OCC(=O)[C@H]21 | > 8500 |
| O=C(N[C@@H](CSCc1ccccc1)C(=O)N1CC[C@H]2OCC(=O)[C@H]21)c1ccccc1 | > 3500 |
| O=C(N[C@@H](CC1CCCCC1)C(=O)N1CC[C@H]2OCC(=O)[C@H]21)c1ccccc1 | > 4000 |
| O=C(N[C@@H](Cc1cccc(O)c1)C(=O)N1CC[C@H]2OCC(=O)[C@H]21)c1ccc(-c2cccs2)cc1 | > 20000 |
| O=C1CO[C@@H]2CCN(C(=O)[C@H](Cc3ccccc3)NC(=O)N3CCOCC3)[C@H]12 | > 36000 |
| O=C1CO[C@@H]2CCN(C(=O)[C@H](CC3CCCCC3)S(=O)(=O)Cc3ccco3)[C@H]12 | > 10000 |
| CC(C)C[C@H](SCc1ccc(C(C)(C)C)cc1)C(=O)N1CC[C@H]2OCC(=O)[C@H]21 | > 50000 |
| O=C(N[C@@H](Cc1ccc(O)cc1)C(=O)N1CC[C@H]2OCC(=O)[C@H]21)c1cc2ccccc2s1 | > 8000 |
